{
  "sequences": {"note": "Chains of the proteins cited; added tags and fusions are not shown. Residues count along the entry.", "UniProt P00791, 60-385": "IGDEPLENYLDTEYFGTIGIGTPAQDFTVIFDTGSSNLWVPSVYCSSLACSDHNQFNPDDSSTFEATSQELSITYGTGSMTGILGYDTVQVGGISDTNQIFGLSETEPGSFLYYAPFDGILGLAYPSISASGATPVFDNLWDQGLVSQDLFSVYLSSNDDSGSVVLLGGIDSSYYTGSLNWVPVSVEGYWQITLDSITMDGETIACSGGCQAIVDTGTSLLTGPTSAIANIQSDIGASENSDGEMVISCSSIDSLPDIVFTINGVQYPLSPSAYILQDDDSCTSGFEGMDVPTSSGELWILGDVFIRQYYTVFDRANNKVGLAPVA"},
  "source": "paper PMC10655810",
  "about": "(Journal of Agricultural and Food Chemistry, 2023)",
  "molecular_target": "pepsin (Sus scrofa, UniProt P00791)",
  "type": "biochemical, porcine",
  "details": "pH 2.5",
  "data": [
    {"smiles": "O=S(=O)(F)Cc1ccccc1", "note": "[PMSF, phenylmethylsulfonyl fluoride]", "values": [
      {"measurement": "Proteolytic activity of pepsin (residual activity)", "result": "81 ± 8.9", "unit": "%"}
    ]}
  ]
}
